This is an account of results in patent publication US7084136B2, “Drug composition antagonistic to both PGD2/TXA2 receptors” (Shionogi & Co., Ltd., priority 2000, dated 2006).

Chains of the proteins cited; added tags and fusions are not shown.
UniProt P21731, whole entry: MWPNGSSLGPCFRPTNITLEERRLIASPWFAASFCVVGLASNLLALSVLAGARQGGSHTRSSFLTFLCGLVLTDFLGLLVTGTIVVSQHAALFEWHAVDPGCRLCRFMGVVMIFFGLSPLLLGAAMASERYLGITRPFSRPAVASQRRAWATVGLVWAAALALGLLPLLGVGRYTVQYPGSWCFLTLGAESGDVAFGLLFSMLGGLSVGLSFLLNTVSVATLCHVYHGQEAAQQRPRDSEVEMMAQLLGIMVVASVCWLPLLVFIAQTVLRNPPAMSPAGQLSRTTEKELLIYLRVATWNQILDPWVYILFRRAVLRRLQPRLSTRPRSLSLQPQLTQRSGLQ
UniProt Q13258, whole entry: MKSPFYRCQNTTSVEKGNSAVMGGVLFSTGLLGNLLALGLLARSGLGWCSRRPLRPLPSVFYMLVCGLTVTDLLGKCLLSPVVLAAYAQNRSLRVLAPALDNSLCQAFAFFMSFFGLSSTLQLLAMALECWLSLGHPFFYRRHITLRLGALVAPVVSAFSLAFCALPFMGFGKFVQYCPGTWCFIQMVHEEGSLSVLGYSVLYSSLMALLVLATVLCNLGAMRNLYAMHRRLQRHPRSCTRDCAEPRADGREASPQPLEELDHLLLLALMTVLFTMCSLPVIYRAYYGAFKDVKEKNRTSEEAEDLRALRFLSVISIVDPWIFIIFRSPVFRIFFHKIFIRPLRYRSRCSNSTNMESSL

pIC50: −log10 of the molar value.

The target of test [1] is TXA2 receptor (Homo sapiens, UniProt P21731). The test is described as follows: Binding activity to TXA2 receptor ([3H](+)-S-145 sodium salt, human platelet membrane fraction). The following applies: read-out: Binding activity to TXA2 receptor in human platelet membrane fraction IC50; human platelet membrane fraction; 2 nM [3H](+)-S-145 sodium salt.
In test [2] the target is PGD2 receptor (Homo sapiens, UniProt Q13258). The test is described as follows: Antagonistic activity against PGD2 receptor using human platelet (inhibition of PGD2-induced cAMP increase). The following applies: read-out: Inhibitory activity for the increase of cAMP caused by PGD2 in human platelet IC50; human platelet; 0.1 μM PGD2. As for the experimental part: Experiment 3 Evaluation of Antagonistic Activity Against PGD2 Receptor
Receptor Using Human Platelet
Peripheral blood was collected from a healthy volunteer using a syringe in which 1/9 volume of a citric acid/dextrose solution was previously added. The sample was subjected to centrifugation at 1200 rpm for 10 min to obtain the supernatant (PRP: platelet rich plasma). The resultant PRP was washed 3 times with a washing buffer and the number of platelets was counted with a micro cell counter. A suspension adjusted to contain the platelets at a final concentration of 5×10^8/ml was warmed at 37° C., then subjected to the pre-treatment with 3-isobutyl-1-methylxanthine (0.5 mM) for 5 min. To the suspension was added a test compound diluted at various concentration, and 10 minutes later, 0.1 μM PGD2 was added to induce the reaction 2 minutes later, hydrochloric acid was added to terminate the reaction. The platelet was destroyed with an ultrasonic homogenizer. After centrifugation, the cAMP in the supernatant was determined by radioimmunoassay. PGD2 receptor antagonism of a drug was evaluated as follows: the inhibition rate regarding cAMP increased by the addition of PGD2 was determined at each concentration, and the concentration of the drug required for 50% inhibition (IC50) was calculated.

On to `CC1(C)[C@H]2C[C@H](CCCCOCC(=O)O)[C@@H](NC(=O)c3ccc(Cc4cccc5c4OCC5)s3)[C@@H]1C2`, for which the pIC50 (usually the negative decadic logarithm of the IC50, by convention in mol/L) was 7.92 in test [1] and 7.72 in test [2].
For `Cc1ccc(C)n1S(=O)(=O)c1ccc(C(=O)N[C@H]2[C@H]3CC[C@H](C3)[C@@H]2CCCCOCC(=O)O)s1`, in that order: 8.85 and 7.92.
In the case of `O=C(O)COCCCC[C@H]1[C@@H]2CC[C@@H](C2)[C@@H]1NC(=O)c1csc2c(Cc3ccccc3O)cccc12`, the pIC50 in test [1] was 7.17; in test [2] it was 7.55.
As to `Cc1cccn1S(=O)(=O)c1ccc(C(=O)N[C@@H]2[C@@H](CCSCC(=O)O)C[C@H]3C[C@@H]2C3(C)C)s1`, the values for the negative-log IC50 (pIC50) in test [1] and in test [2] were 8.72 and 7.21, respectively.
For `O=C(O)CCCCCC[C@H]1[C@@H]2CC[C@@H](C2)[C@@H]1NC(=O)c1csc2c(Cc3ccccc3)cccc12`, in that order: 7.08 and 7.44.
The like results for `O=C(O)COCCCC[C@H]1[C@@H]2CC[C@@H](C2)[C@@H]1NC(=O)c1csc2c(Cc3ccccc3F)cccc12` were, in that order, 7.41 and 7.55.
Take `O=C(O)CCCCCC[C@H]1[C@@H]2CC[C@@H](C2)[C@@H]1NC(=O)c1ccc(Cc2ccsc2)s1`: the results for the pIC50 in test [1] and in test [2] were 7.47 and 7.44, respectively.
Regarding `O=C(O)/C=C/CCCC[C@H]1[C@@H]2CC[C@@H](C2)[C@@H]1NC(=O)c1ccc(Cc2ccccc2)s1`, the pIC50 in test [1] was 7.19; in test [2], 7.04.
For `O=C(O)/C=C/CCCC[C@H]1[C@@H]2CC[C@@H](C2)[C@@H]1NC(=O)c1ccc(S(=O)(=O)c2cccs2)s1`, in that order: 8.92 and 7.07.
The like results for `CS(=O)(=O)NC(=O)COCCCC[C@H]1[C@@H]2CC[C@@H](C2)[C@@H]1NC(=O)c1ccc(S(=O)(=O)n2cccc2)s1` were, in that order, 7.36 and 7.41.
In the case of `Cc1ccc(C)n1S(=O)(=O)c1ccc(C(=O)N[C@H]2[C@H]3CC[C@H](C3)[C@@H]2CCCCSCC(=O)O)s1`, the pIC50 in test [1] is 7.92; in test [2], 7.57.
For `Cc1ccc(C)n1S(=O)(=O)c1ccc(C(=O)N[C@@H]2[C@@H](CCCC/C=C/C(=O)O)C[C@H]3C[C@@H]2C3(C)C)s1`, in that order: 9.22 and 7.49.
As to `Cc1cccn1S(=O)(=O)c1ccc(C(=O)N[C@@H]2[C@@H](CCCCSCC(=O)O)C[C@H]3C[C@@H]2C3(C)C)s1`, the values for the pIC50 in test [1] and in test [2] were 8.44 and 7.89, respectively.
For `Cc1ccc(C)n1S(=O)(=O)c1ccc(C(=O)N[C@@H]2[C@@H](CCCCSCC(=O)O)C[C@H]3C[C@@H]2C3(C)C)s1`, in that order: 7.82 and 7.64.
The like results for `CC1(C)[C@H]2C[C@H](CCCCC(=O)O)[C@@H](NC(=O)c3csc4c(Cc5ccccc5)cccc34)[C@@H]1C2` were, in that order, 7.33 and 7.62.
For `COc1ccccc1Cc1cccc2c(C(=O)N[C@H]3[C@H]4CC[C@H](C4)[C@@H]3CCCCOCC(=O)O)csc12`, in that order: 7.21 and 6.96.
Consider `CC1(C)[C@H]2C[C@H](CCCCC(=O)O)[C@@H](NC(=O)c3ccc(Cc4ccccc4)s3)[C@@H]1C2`, for which the pIC50 is 7.89 in test [1] and 7.35 in test [2].
For `O=C(O)COCCCC[C@H]1[C@@H]2CC[C@@H](C2)[C@@H]1NC(=O)c1csc2c(Cc3ccccc3)cc(O)cc12`, in that order: 8.12 and 7.70.
In the case of `O=C(O)CSCCCC[C@H]1[C@@H]2CC[C@@H](C2)[C@@H]1NC(=O)c1ccc(S(=O)(=O)n2cccc2)s1`, the pIC50 in test [1] was 8.00; in test [2], 7.74.
For the compound `COc1ccc2ccccc2c1Cc1ccc(C(=O)N[C@@H]2[C@@H](CCCCOCC(=O)O)C[C@H]3C[C@@H]2C3(C)C)s1`, the pIC50 was 7.11 in test [1] and 7.68 in test [2].
For `Cc1cccn1S(=O)(=O)c1ccc(C(=O)N[C@@H]2[C@@H](CCSCCCC(=O)O)C[C@H]3C[C@@H]2C3(C)C)s1`, in that order: 7.68 and 7.11.
The like results for `CC1(C)[C@H]2C[C@H](CCCCOCC(=O)NS(C)(=O)=O)[C@@H](NC(=O)c3ccc(S(=O)(=O)n4cccc4)s3)[C@@H]1C2` were, in that order, 7.96 and 6.92.
As to `O=C(O)COCCCC[C@H]1[C@@H]2CC[C@@H](C2)[C@@H]1NC(=O)c1csc2c(Cc3ccccc3F)cc(O)cc12`, the pIC50 in test [1] is 8.20; in test [2], 7.57.
The like results for `CC1(C)[C@H]2C[C@H](CCCCCCC(=O)O)[C@@H](NC(=O)c3ccc(S(=O)(=O)c4cccs4)s3)[C@@H]1C2` were, in that order, 8.42 and 7.23.
For `O=C(O)COCCCC[C@H]1[C@@H]2CC[C@@H](C2)[C@@H]1NC(=O)c1coc2c(Cc3ccccc3F)cccc12`, the values for the pIC50 in test [1] and in test [2] were 7.43 and 7.72, respectively.
Take `O=C(O)COCCCC[C@H]1[C@@H]2CC[C@@H](C2)[C@@H]1NC(=O)c1csc2c(S(=O)(=O)c3ccccc3)cccc12`: the pIC50 in test [1] was 7.54; in test [2], 7.48.
The like results for `COc1ccccc1Cc1ccc(C(=O)N[C@@H]2[C@@H](CCCCOCC(=O)O)C[C@H]3C[C@@H]2C3(C)C)s1` were, in that order, 6.92 and 7.59.
Take `CC1(C)[C@H]2C[C@H](CCCCOCC(=O)O)[C@@H](NC(=O)c3ccc(S(=O)(=O)n4cccc4)s3)[C@@H]1C2`: the pIC50 in test [1] is 8.92; in test [2] it was 7.27.
Turning to `Cc1ccc(C)n1S(=O)(=O)c1ccc(C(=O)N[C@@H]2[C@@H](CCCCOCC(=O)O)C[C@H]3C[C@@H]2C3(C)C)s1`, the negative logarithm of the IC50 (pIC50) was 9.22 in test [1] and 7.47 in test [2].
For `CCCCc1cc2c(c(Sc3ccc(C(=O)N[C@H]4[C@H]5CC[C@H](C5)[C@@H]4CCCCOCC(=O)O)s3)c1)OCC2`, in that order: 7.72 and 6.96.
For the compound `O=C(O)COCCCC[C@H]1[C@@H]2CC[C@@H](C2)[C@@H]1NC(=O)c1ccc(S(=O)(=O)N2CCOc3ccccc32)s1`, the pIC50 in test [1] was 7.89; in test [2], 7.03.
`CC1(C)[C@H]2C[C@H](CCCCOCC(=O)O)[C@@H](NC(=O)c3ccc(S(=O)(=O)N4CCCc5ccccc54)s3)[C@@H]1C2`: the pIC50 in test [1] was 8.77; in test [2] it was 7.17.
As for `CC1(C)[C@H]2C[C@H](CCCCOCC(=O)NS(=O)(=O)c3ccccc3)[C@@H](NC(=O)c3ccc(S(=O)(=O)n4cccc4)s3)[C@@H]1C2`, the pIC50 in test [1] and in test [2] was 7.70 in each case.
Regarding `O=C(O)CCCCCC[C@H]1[C@@H]2CC[C@@H](C2)[C@@H]1NC(=O)c1ccc(Cc2ccccc2)s1`, the pIC50 in test [1] was 7.20; in test [2] it was 7.24.
Take `CC1(C)[C@H]2C[C@H](CCCCC(=O)O)[C@@H](NC(=O)c3ccc(CSc4cccs4)s3)[C@@H]1C2`: the results for the pIC50 in test [1] and in test [2] were 7.89 and 7.33, respectively.
For `CC1(C)[C@H]2C[C@H](CCCC/C=C/C(=O)O)[C@@H](NC(=O)c3ccc(Cc4coc5ccc(O)cc45)s3)[C@@H]1C2`, the pIC50 is 7.34 in test [1] and 7.38 in test [2].
For `CC1(C)[C@H]2C[C@H](CCCCCCC(=O)O)[C@@H](NC(=O)c3csc4c(Cc5ccccc5)cccc34)[C@@H]1C2`, in that order: 7.43 and 7.72.
The like results for `O=C(O)CCCCCC[C@H]1[C@@H]2CC[C@@H](C2)[C@@H]1NC(=O)c1ccc(CSc2cccs2)s1` were, in that order, 7.62 and 7.09.
The like results for `COc1ccc2ccccc2c1Cc1ccc(C(=O)N[C@H]2[C@H]3CC[C@H](C3)[C@@H]2CCCC/C=C/C(=O)O)s1` were, in that order, 7.29 and 7.01.
For `COc1ccc2ccccc2c1Cc1ccc(C(=O)N[C@H]2[C@H]3CC[C@H](C3)[C@@H]2CCCCOCC(=O)O)s1`, the pIC50 in test [1] was 7.00; in test [2] it was 7.62.
The like results for `CC1(C)[C@H]2C[C@H](CCCCOCC(=O)O)[C@@H](NC(=O)c3ccc(Cc4coc5ccc(O)cc45)s3)[C@@H]1C2` were, in that order, 7.26 and 7.55.
For `CC1(C)[C@H]2C[C@H](CCCC/C=C/C(=O)O)[C@@H](NC(=O)c3csc4c(S(=O)(=O)c5ccccc5)cccc34)[C@@H]1C2`, the pIC50 in test [1] was 8.39; in test [2] it was 7.10.
With `CC1(C)[C@H]2C[C@H](CCCCCCC(=O)O)[C@@H](NC(=O)c3ccc(Cc4ccccc4)s3)[C@@H]1C2`, the figures for the pIC50 in test [1] and in test [2] were 7.09 and 7.57, respectively.
For `CC1(C)[C@H]2C[C@H](CCCCOCC(=O)O)[C@@H](NC(=O)c3csc4c(S(=O)(=O)c5ccccc5)cccc34)[C@@H]1C2`, the negative-log IC50 (pIC50) in test [1] was 8.35; in test [2], 7.12.
In the case of `COc1ccccc1Cc1ccc(C(=O)N[C@@H]2[C@@H](CCCC/C=C/C(=O)O)C[C@H]3C[C@@H]2C3(C)C)s1`, the pIC50 was 6.99 in test [1] and 7.89 in test [2].
The like results for `CC1(C)[C@H]2C[C@H](CCCCCCC(=O)O)[C@@H](NC(=O)c3ccc(Sc4cccs4)s3)[C@@H]1C2` were, in that order, 7.40 and 7.38.
The like results for `O=C(O)/C=C/CCCC[C@H]1[C@@H]2CC[C@@H](C2)[C@@H]1NC(=O)c1ccc(S(=O)(=O)n2cccc2)s1` were, in that order, 8.59 and 7.19.
